The list shows a part of the results, in another mix than the full data. Calls of active or inactive are those of the source.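 How the source made its calls: active means compounds that cut the binding signal by more than half at the single screening dose; inactive means the rest.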
target: Induced myeloid leukemia cell differentiation protein Mcl-1 (Homo sapiens) (UniProt Q07820); test: disruptors of Mcl-1 and Bid BH3 peptide – biochemical, TR-FRET, 1536-well, primary screen (AID 1021); settings: TR-FRET Mcl-1/Bid-Dy647 peptide binding, at 21.7 µM, hits give high values;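 further: His-tagged Mcl-1 with europium anti-His antibody binding Bid BH3 peptide; 0% = Mcl-1 plus peptide wells and 100% = peptide-only wells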

Amino acid sequences for entries named in this document (tags omitted).
UniProt Q07820, whole entry: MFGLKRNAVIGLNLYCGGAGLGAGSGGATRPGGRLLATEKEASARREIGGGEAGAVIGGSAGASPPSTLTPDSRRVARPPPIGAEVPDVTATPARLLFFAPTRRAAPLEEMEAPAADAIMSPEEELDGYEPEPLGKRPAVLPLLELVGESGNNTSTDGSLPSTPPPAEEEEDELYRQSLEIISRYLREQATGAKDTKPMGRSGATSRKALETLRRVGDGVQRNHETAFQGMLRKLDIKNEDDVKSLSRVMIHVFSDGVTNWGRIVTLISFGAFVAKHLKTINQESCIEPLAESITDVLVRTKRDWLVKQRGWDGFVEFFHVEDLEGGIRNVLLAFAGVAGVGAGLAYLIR

| Structure (SMILES) | inhibition |
| --- | --- |
| O=[As](O)(c1ccc(O)cc1)c1ccccc1O | inactive: 11.4% |

— PubChem BioAssay AID1021 (Emory University Molecular Libraries Screening Center, 2008)
